# Antibody variant affinities, Ab-14 light chain, assay B

The measurements come from Li et al. 2023 (doi:10.1038/s41467-023-39022-2) through the FLAb antibody collection.

All variants were tested on one target, the spike HR2 peptide PDVDLGDISGINAS (SARS-CoV-2).

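The starting antibody came from a phage panning campaign against this peptide. This is the validation round: designs drawn from the data on random variants, tested in the same kind of assay. Group labels follow the data file (Ctrl: baseline library sampled from a position-specific scoring matrix, with some repeated check sequences; Rand: our label for a block that the file lists under HC and that is probably the random mutants of the ten best first-round binders; GP: Gaussian process model; GPLM: also part of the Gaussian process libraries; HC: hill climbing; Gen: genetic algorithm; Gibbs: Gibbs sampling; a sequence that several methods proposed may carry one label only). Affinity was read by AlphaSeq, a pooled yeast mating assay with surface-displayed partners. The frequency of each diploid, read from paired DNA barcodes, reflects how well the two displayed proteins bind. Each replicate has its own calibration line, from reference interactions of the BCL2 family. There are six technical replicates.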

Each scFv is VH, a (GGGGS)3 linker, VL, as in the parent Ab-14, and differs from it in the CDRs of the light chain only.
VH: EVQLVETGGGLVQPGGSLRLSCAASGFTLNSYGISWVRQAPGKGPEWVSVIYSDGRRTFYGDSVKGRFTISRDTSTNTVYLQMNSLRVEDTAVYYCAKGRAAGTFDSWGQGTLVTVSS
VL: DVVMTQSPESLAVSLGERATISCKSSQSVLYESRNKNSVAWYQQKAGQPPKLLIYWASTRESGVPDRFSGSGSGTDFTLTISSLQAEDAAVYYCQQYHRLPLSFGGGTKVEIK

Substitutions are numbered in sequence along the VL above, starting at 1 (not Kabat).
Variants here have at most six changes.
The Kd shown is the geometric mean over detected replicates; a lower Kd is a better binder.
Where no diploid with the target was found in any replicate, the entry reads "no signal": below detection, most likely a poor binder, though not proof of it.
As a blank, each scFv also met three strains without target: over all light chain designs, 4% of these pairings were detected, typically at 430 nM and seldom below 38 nM.
A sequence measured in both rounds can read differently, since the two assays cover different ranges.
The authors' rule: three or more of the six replicates give a measured affinity, fewer mean a poor binder.
Of ten entries with the parent sequence, four were seen in most replicates (averages 2.2 nM to 240 nM), three in one and three in none, so single entries are noisy.

| changes | group | apparent Kd | seen in |
|---|---|---|---|
| V29P/W56S | Ctrl | 160 pM | 6/6 |
| W56M/Q96T | Ctrl | no signal | 0/6 |
| S26G/S28G/W56G/T59E | GP_HC | 1.2 nM | 6/6 |
| A57G/H98S | Ctrl | 40 nM | 6/6 |
| S25F/V29G/Y97A | Ctrl | 260 nM | 4/6 |
| S25L/Q27F/V29M/W56N/T59Q | GP_Gen | 620 pM | 6/6 |
| Y31G/S62K/S103F | Ctrl | 77 nM | 6/6 |
| Q27I/R34F | Ctrl | 4.8 nM | 6/6 |
| S25Q/S33W/W56D | Rand | 1.3 nM | 6/6 |
| Y31M/H98I/R99N/L102N | Ctrl | 25 nM | 2/6 |
| S25L/S26M/L30M/E32W/S33M/W56N | GP_Gibbs | 2.1 nM | 6/6 |
| S25I/V29Q/W56N | GP_Gen | 580 pM | 6/6 |
| Q27T/W56G/T59V/E61S | Ctrl | 4.0 nM | 6/6 |
| S25L/Q27M/V29W/W56N/T59Q | GP_Gen | 1.7 nM | 6/6 |
| E61P/S62Q/L100T | Ctrl | no signal | 0/6 |
| S25L/S33D/W56N/S62Q | GP_Gen | 860 pM | 6/6 |
| K24H/Q27P/L30R/W56N | GP_HC | 80 nM | 6/6 |
| V29H/R34N/P101L/L102I | Ctrl | 940 pM | 1/6 |
| S28P/W56A/T59K | Ctrl | 2.4 nM | 6/6 |
| Q95T/L100T | Ctrl | 180 nM | 1/6 |
| E32S/R34Q/K36N/T59L | Ctrl | 720 nM | 6/6 |
| V29D/W56G/T59F | GP_HC | 1.3 nM | 6/6 |
| S25V/S26M/L30V/S33G/W56H/S62D | GP_HC | 810 pM | 6/6 |
| S25I/V29A/Y31V/S33D/R99D/P101S | Ctrl | no signal | 0/6 |
| S25L/S26R/V29T/W56A/E61L | GP_HC | 770 pM | 6/6 |
| S26G/S28G/W56N | GPLM_HC | 8.7 nM | 6/6 |
| S25P/L30S/Y31D/W56S/E61V/S62E | Ctrl | 2.1 nM | 6/6 |
| S25A/W56G/A57G/R99K | Ctrl | 2.0 nM | 6/6 |
| S25I/Y31M/R34L/W56E/E61L/S62D | GP_Gibbs | 1.5 nM | 6/6 |
| S25L/R34N/W56N/S62D/Q95Y | Ctrl | 80 nM | 5/6 |
| Y31M/W56N/Q96A/H98Y | Ctrl | no signal | 0/6 |
| K36Q/W56G/L102H | Ctrl | 1.1 nM | 6/6 |
| S25L/S26R/V29T/K36Q/W56K | GP_HC | 2.5 nM | 6/6 |
| S25L/S26D/V29W/W56N/T59Q/E61L | GP_Gen | 1.1 nM | 6/6 |
| W56N/R99I | Ctrl | 35 nM | 6/6 |
| W56E/R99C | Ctrl | no signal | 0/6 |
| S25H/S26L/W56H/S62D/R99Q | GP_HC | 1.1 nM | 6/6 |
| V29G/W56N | Ctrl | 1.9 nM | 6/6 |
| S25L/V29G/W56H/E61C | GP_Gen | 2.0 nM | 6/6 |
| Q27P/W56N/S62E | GP_Gibbs | 620 pM | 6/6 |
| V29H/S33E | Ctrl | 75 nM | 2/6 |
| S25F/S28L/V29Q/W56N/T59C/H98W | GP_Gibbs | 1.3 nM | 6/6 |
| S25F/N35T/S38V/W56N | Rand | 13 nM | 6/6 |
| S25L/S33W/W56N/T59Q | GP_Gen | 11 nM | 6/6 |
| S25M/S28G/S38N/W56G | GP_HC | 1.1 nM | 6/6 |
| S25L/S26Q/V29H/W56D | GP_Gen | 860 pM | 6/6 |
| S25F/V29W/K36F/N37W/W56G | GP_HC | 5.4 nM | 6/6 |
| V29W/W56D/S62Q | GP_HC | 230 pM | 6/6 |
| W56S/S58A/Y97Q | Ctrl | no signal | 0/6 |
| V29S | Ctrl | no signal | 0/6 |
| R34N/W56N/E61M | GP_HC | 8.4 nM | 6/6 |
| S26G/S28G/R34P/W56G/S62P/S103K | Rand | 2.5 nM | 6/6 |
| V29S/S58D | Ctrl | 36 nM | 6/6 |
| S25L/S33Q/N35V/W56N | GP_Gen | 1.5 nM | 6/6 |
| S25L/V29Y/W56H | GP_Gen | 810 pM | 6/6 |
| S103M | Ctrl | 350 nM | 1/6 |
| S25Q/Y31M/K36C/W56D/H98V | GP_HC | 850 pM | 6/6 |
| S25L/Q27G/W56D | GP_Gen | 490 pM | 6/6 |
| Q27S/W56K/S62G | Ctrl | 450 nM | 5/6 |
| L30D/R34N | Ctrl | 22 nM | 6/6 |
| K36F/W56K | Ctrl | 36 nM | 3/6 |
| S25L/S26V/V29W/W56G/S103I | GP_HC | 1.8 nM | 6/6 |
| S25Q/W56D/Q96D/S103D | GP_HC | 8.3 nM | 6/6 |
| K24R/S26Q/V29F/S38A | Ctrl | 49 nM | 5/6 |
| K24R/S25M/W56D | GP_HC | 390 pM | 6/6 |
| S25L/V29C/S38N/W56G | GP_Gen | 2.1 nM | 6/6 |
| K24Q/R34N/Q96T/H98N/S103M | Ctrl | 43 nM | 5/6 |
| Q27T/L30M/S58T | Ctrl | 80 nM | 3/6 |
| S26M/V29W/W56H/S62Q | GP_HC | 6.0 nM | 6/6 |
| W56N/E61V/Q95F/Y97P | Ctrl | 380 nM | 6/6 |